In patent publication US20150337019A1 (MANUKAMED HOLDINGS LIMITED PARTNERSHIP, published 2015):
Read-outs that look alike come from different tables or passages of the source. Values belong to the binder of their own block, whether it stands above or below them.

Experiments:
Assay in all cases: cell-based or functional assay
[1] = biological target: T1, Cathepsin B from bovine spleen (bovine, UniProt P07688 80-332)
[2] = biological target: T1, Cathepsin B from bovine spleen; remark: listed apart in the source
[3] = biological target: T1, Cathepsin B from bovine spleen; remark: listed apart in the source
[4] = biological target: T1, Cathepsin B from bovine spleen; remark: listed apart in the source
[5] = biological target: T1, Cathepsin B from bovine spleen; remark: listed apart in the source
[6] = biological target: T1, Cathepsin B from bovine spleen; remark: listed apart in the source
[7] = biological target: T1, Cathepsin B from bovine spleen; remark: listed apart in the source

Cathepsin B inhibition test, 2 mM peptide [1]: 138
B1: Ac-SK-OH (peptide)
peptide: SK
modifications: N-terminal acetyl (Ac); C-terminal acid (OH)

Cathepsin B inhibition test, 2 mM peptide [2]: 112
B2: MGO-modified Ac-KN-OH (peptide)
peptide: KN
modifications: N-terminal acetyl (Ac); C-terminal acid (OH); MGO-modified (methylglyoxal; site not given)

Cathepsin B inhibition test, 2 mM peptide [1]: 116
B3: MGO-modified Ac-SK-OH (peptide)
peptide: SK
modifications: N-terminal acetyl (Ac); C-terminal acid (OH); MGO-modified (methylglyoxal; site not given)

Cathepsin B inhibition test, 2 mM peptide [3]: 116
B4: MGO-modified H-QNDNR-OH (peptide)
peptide: QNDNR
modifications: free N-terminus (H); C-terminal acid (OH); MGO-modified (methylglyoxal; site not given)

Cathepsin B inhibition test, 2 mM peptide [4]: 135
B5: Ac-KS-OH (peptide)
peptide: KS
modifications: N-terminal acetyl (Ac); C-terminal acid (OH)

Cathepsin B inhibition test, 2 mM peptide [5]: 138
B6: Ac-QNKH-OH (peptide)
peptide: QNKH
modifications: N-terminal acetyl (Ac); C-terminal acid (OH)

Cathepsin B inhibition test, 2 mM peptide [5]: 112
B7: MGO-modified Ac-KHNN-OH (peptide)
peptide: KHNN
modifications: N-terminal acetyl (Ac); C-terminal acid (OH); MGO-modified (methylglyoxal; site not given)

Cathepsin B inhibition test, 2 mM peptide [4]: 111
B8: MGO-modified Ac-KS-OH (peptide)
peptide: KS
modifications: N-terminal acetyl (Ac); C-terminal acid (OH); MGO-modified (methylglyoxal; site not given)

Cathepsin B inhibition test, 2 mM peptide [6]: 109
B9: Ac-KI-OH (peptide)
peptide: KI
modifications: N-terminal acetyl (Ac); C-terminal acid (OH)

Cathepsin B inhibition test, 2 mM peptide [1]: 135
B10: MGO-modified Ac-HSSK-OH (peptide)
peptide: HSSK
modifications: N-terminal acetyl (Ac); C-terminal acid (OH); MGO-modified (methylglyoxal; site not given)

Cathepsin B inhibition test, 2 mM peptide [7]: 112
B11: H-MNR-OH (peptide)
peptide: MNR
modifications: free N-terminus (H); C-terminal acid (OH)

Cathepsin B inhibition test, 2 mM peptide [5]: 116
B12: MGO-modified Ac-KH-OH (peptide)
peptide: KH
modifications: N-terminal acetyl (Ac); C-terminal acid (OH); MGO-modified (methylglyoxal; site not given)
